Among the data in patent publication US10933059B2, “Combination, application thereof and treatment method” (KANGPU BIOPHARMACEUTICALS, LTD., priority 2016, dated 2021) are viability values, retold here.

This assay relates to Vcap cells. Briefly: CTG cell proliferation assay on Vcap cells (compounds alone or in combination, 5 days). The class given is cell-based. Particulars: Homo sapiens, 120 h, tested compound alone, read-out: Survival rate of Vcap cells. On the procedure:
In vitro test of the inhibition effect of the compound in combination with androgen receptor pathway modulators on the prostate cancer cell proliferation.
Inhibition effect of the compounds such as B101, B102, B103, B104, B105, B106, C111 and the like, androgen receptor pathway modulators, hormone compounds, alone or in combination with each other on the prostate cancer cell proliferation were tested on Vcap cells (androgen receptor (+) prostate cancer cells) (ATCC, catalogue number CRL-2876). The specific experimental operation was as follows: 5×10^3 Vcap cells per well were inoculated into 96-well plates with transparent bottom and white wall (Corning, catalogue number CLS3903) containing the specific medium, and were cultured in a 37° C., 5% CO2 incubator for 24 hours. The tested compounds and the androgen receptor pathway modulators were prepared to a 150 mM stocking solution with DMSO (Sigma, catalogue number 276855), diluted with culture medium to the desired concentrations (the final concentration of DMSO is 0.2%), and then added to each well, 2 wells/concentration, followed by being incubated in a 37° C., 5% CO2 incubator for 5 days. The tested compounds were used alone or in combination with other androgen receptor pathway modulators and/or hormone compounds respectively. […] After that, 100 μl of CellTiter-Glo® cell viability assay reagent (Promega, catalogue number G7570) was added to each well and mixed well on a vibrator for 10 minutes to induce cell lysis. The 96-well plate was placed at room temperature for 10 minutes, so as to stabilize its luminescence signal. A white bottom membrane was pasted on the bottom of the plate and the plate was tested using EnSpire.

As to `CNC(=O)c1ccc(N2C(=S)N(c3cnc(C#N)c(C(F)(F)F)c3)C(=O)C23CCC3)cc1F` [ARN-509, reference compound], the viability at 0.1 µM (0.1 μM) turned out to be 81.8%. Also, the viability at 1 µM (1 μM) came to 52.2%. Further, the viability at 10 µM (10 μM) amounted to 48.9%.
